# According to US20260014194A1, “COMBINATIONS COMPRISING METAP2 INHIBITORS FOR THE TREATMENT OF CANCER” (SynDevRx, Inc., priority 2022, published 2026):
# Assay: Body weight, adipose tissue mass and tolerability in E0771 tumor-bearing high-fat diet mice
# Conditions: FIG. 9; compared to vehicle group; Compound 1 6 or 12 mg/kg SC Q4D, eribulin mesylate 1 or 2 mg/kg IP
compound,measurement,value
C=C1C[C@@H]2CC[C@@]34C[C@H]5O[C@H]6[C@@H](O3)[C@H]3O[C@H](CC[C@@H]3O[C@H]6[C@H]5O4)CC(=O)C[C@@H]3[C@@H](OC)[C@@H](C[C@H](O)CN)O[C@H]3C[C@H]3O[C@@H](CC[C@@H]1O2)C[C@@H](C)C3=C [eribulin mesylate],Weight loss (body weight change over the study),increased as compared to the vehicle group

# Counter-ions that a name gives are not always drawn.
